Reference: publication PMC7656562 (Journal of medicinal chemistry, 2019)

Sequences of proteins named here, by UniProt entry; tags and fusion partners are left off.
UniProt P21554, whole entry: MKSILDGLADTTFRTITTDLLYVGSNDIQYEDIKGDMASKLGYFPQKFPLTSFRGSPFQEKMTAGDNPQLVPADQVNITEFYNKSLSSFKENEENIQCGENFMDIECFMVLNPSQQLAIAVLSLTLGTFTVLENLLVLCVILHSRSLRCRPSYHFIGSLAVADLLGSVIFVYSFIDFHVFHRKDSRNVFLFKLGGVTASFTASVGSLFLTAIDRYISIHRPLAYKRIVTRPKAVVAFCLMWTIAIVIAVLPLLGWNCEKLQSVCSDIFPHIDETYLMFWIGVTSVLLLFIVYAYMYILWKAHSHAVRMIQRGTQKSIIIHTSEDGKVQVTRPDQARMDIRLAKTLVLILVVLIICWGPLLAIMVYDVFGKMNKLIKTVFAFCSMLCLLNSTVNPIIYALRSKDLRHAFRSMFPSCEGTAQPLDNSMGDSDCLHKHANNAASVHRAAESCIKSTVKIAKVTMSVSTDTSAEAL

Tests used:
hCB1 [1] = target: T1, hCB1 (Homo sapiens, UniProt P21554); conditions: calcium mobilization; cited from earlier work
[2] = cited from earlier work
hCB1 [3] = target: T1, hCB1; assay: cell-based
hCB1 [4] = target: T1, hCB1; assay: biochemical
CYP1A2 = conditions: human
CYP2B6 = conditions: human
[5] = mouse, 0.3 mg/kg PO
CYP3A4 = conditions: human
[6] = rat, 1 mg/kg PO
hCB1 [7] = target: T1, hCB1; conditions: ratio Ki hCB2/Ki hCB1

SMILES: CCNC1(C(N)=O)CCN(c2ncnc3c2nc(-c2ccccc2Cl)n3-c2ccc(Cl)cc2)CC1 [Compound 1, otenabant]
- Ke hCB1 (hCB1 [1]): 0.2 nM
- cLogP [2]: 4.4

SMILES: CCCN(C)C(=O)NC1CCN(c2ncnc3c2nc(-c2ccccc2Cl)n3-c2ccc(Cl)cc2)CC1 [Compound 11, 1-{1-[8-(2-Chlorophenyl)-9-(4-chlorophenyl)-9H-purin-6-yl]-piperidin-4-yl}-3-methyl-3-propylurea]
- Kb (hCB1 [3]): 5 ± 3 nM

SMILES: CC(C)CN(C)C(=O)NC1CCN(c2ncnc3c2nc(-c2ccccc2Cl)n3-c2ccc(Cl)cc2)CC1 [Compound 13, 1-{1-[8-(2-Chlorophenyl)-9-(4-chlorophenyl)-9H-purin-6-yl]-piperidin-4-yl}-3-methyl-3-(2-methylpropyl)urea]
- Kb (hCB1 [3]): 6 ± 2 nM

SMILES: COCCN(C)C(=O)NC1CCN(c2ncnc3c2nc(-c2ccccc2Cl)n3-c2ccc(Cl)cc2)CC1 [Compound 15, 1-{1-[8-(2-Chlorophenyl)-9-(4-chlorophenyl)-9H-purin-6-yl]-piperidin-4-yl}-3-(2-methoxyethyl)-3-methylurea]
- Kb (hCB1 [3]): 13 ± 7 nM

SMILES: O=C(NC1CCCC1)NC1CCN(c2ncnc3c2nc(-c2ccccc2Cl)n3-c2ccc(Cl)cc2)CC1 [Compound 19, 1-{1-[8-(2-Chlorophenyl)-9-(4-chlorophenyl)-9H-purin-6-yl]-piperidin-4-yl}-3-cyclopentylurea]
- Kb (hCB1 [3]): 25 ± 14 nM

SMILES: O=C(NCC1CCCC1)NC1CCN(c2ncnc3c2nc(-c2ccccc2Cl)n3-c2ccc(Cl)cc2)CC1 [Compound 24, 3-{1-[8-(2-Chlorophenyl)-9-(4-chlorophenyl)-9H-purin-6-yl]-piperidin-4-yl}-1-(cyclopentylmethyl)urea]
- Kb (hCB1 [3]): 63 ± 37 nM

SMILES: O=C(NCc1ccccc1F)NC1CCN(c2ncnc3c2nc(-c2ccccc2Cl)n3-c2ccc(Cl)cc2)CC1 [Compound 28, 3-{1-[8-(2-Chlorophenyl)-9-(4-chlorophenyl)-9H-purin-6-yl]-piperidin-4-yl}-1-[(2-fluorophenyl)methyl]urea]
- Kb (hCB1 [3]): 71 ± 7 nM
- Ki (hCB1 [4]): 2 nM

SMILES: O=C(NCc1ccc(F)cc1)NC1CCN(c2ncnc3c2nc(-c2ccccc2Cl)n3-c2ccc(Cl)cc2)CC1 [Compound 29, 3-{1-[8-(2-Chlorophenyl)-9-(4-chlorophenyl)-9H-purin-6-yl]-piperidin-4-yl}-1-[(4-fluorophenyl)methyl]urea]
- Kb (hCB1 [3]): 19 ± 6 nM

SMILES: O=C(Nc1ccccc1F)NC1CCN(c2ncnc3c2nc(-c2ccccc2Cl)n3-c2ccc(Cl)cc2)CC1 [Compound 32, 3-{1-[8-(2-Chlorophenyl)-9-(4-chlorophenyl)-9H-purin-6-yl]-piperidin-4-yl}-1-(2-fluorophenyl)urea]
- Kb (hCB1 [3]): 58 ± 7 nM

SMILES: O=C(Nc1ccc(F)cc1F)NC1CCN(c2ncnc3c2nc(-c2ccccc2Cl)n3-c2ccc(Cl)cc2)CC1 [Compound 33, 3-{1-[8-(2-Chlorophenyl)-9-(4-chlorophenyl)-9H-purin-6-yl]-piperidin-4-yl}-1-(2,4-difluorophenyl)urea]
- CYP1A2 induction (% of omeprazole) (CYP1A2): <1%
- CYP2B6 induction (% of phenobarbital) (CYP2B6): <10%
- plasma Cl [5]: 0.317 mL/min/kg
- time of brain max. conc. [5]: 2 h
- time of liver max. conc. [5]: 2 h

SMILES: O=C(Nc1ccc(F)cc1)NC1CCN(c2ncnc3c2nc(-c2ccccc2Cl)n3-c2ccc(Cl)cc2)CC1 [Compound 35, 3-{1-[8-(2-Chlorophenyl)-9-(4-chlorophenyl)-9H-purin-6-yl]-piperidin-4-yl}-1-(4-fluorophenyl)urea]
- Kb (hCB1 [3]): 78 ± 20 nM

SMILES: O=C(Nc1ccc(OC(F)F)nc1)NC1CCN(c2ncnc3c2nc(-c2ccccc2Cl)n3-c2ccc(Cl)cc2)CC1 [Compound 38, 3-{1-[8-(2-Chlorophenyl)-9-(4-chlorophenyl)-9H-purin-6-yl]-piperidin-4-yl}-1-[6-(difluoromethoxy)pyridin-3-yl]urea]
- CYP1A2 induction (% of omeprazole) (CYP1A2): <1%
- CYP2B6 induction (% of phenobarbital) (CYP2B6): <10%
- CYP3A4 induction (% of rifampicin) (CYP3A4): <10%
- plasma Cl [5]: 0.35 mL/min/kg
- time of brain max. conc. [5]: 4 h
- time of liver max. conc. [5]: 4 h
- plasma Cl [6]: 0.3 mL/min/kg
- time of brain max. conc. [6]: 2 h
- time of liver max. conc. [6]: 4 h
- Kb (hCB1 [3]): 26 ± 9 nM

SMILES: O=C(NC1CCN(c2ncnc3c2nc(-c2ccccc2Cl)n3-c2ccc(Cl)cc2)CC1)NS(=O)(=O)c1ccccc1F [Compound 41, 3-{1-[8-(2-Chlorophenyl)-9-(4-chlorophenyl)-9H-purin-6-yl]-piperidin-4-yl}-1-[(2-fluorobenzene)sulfonyl]urea]
- Kb (hCB1 [3]): 280 ± 130 nM

SMILES: O=C(NCC1CCCCC1)NC1CCN(c2ncnc3c2nc(-c2ccccc2Cl)n3-c2ccc(OC(F)F)nc2)CC1 [Compound 43, 3-{1-[8-(2-Chlorophenyl)-9-[6-(difluoromethoxy)pyridin-3-yl]-9H-purin-6-yl]piperidin-4-yl}-1-(cyclohexylmethyl)urea]
- Kb (hCB1 [3]): 100 ± 30 nM

SMILES: O=C(Nc1ccccc1F)NC1CCN(c2ncnc3c2nc(-c2ccccc2Cl)n3-c2ccc(C(F)(F)F)nc2)CC1 [Compound 45, 3-{1-[8-(2-Chlorophenyl)-9-[6-(trifluoromethyl)pyridin-3-yl]-9H-purin-6-yl]piperidin-4-yl}-1-(2-fluorophenyl)urea]
- Kb (hCB1 [3]): 210 ± 70 nM

SMILES: O=C(Nc1ccccc1F)NC1CCN(c2ncnc3c2nc(-c2ccccc2Cl)n3-c2ccc(OC(F)F)nc2)CC1 [Compound 46, 3-{1-[8-(2-Chlorophenyl)-9-[6-(difluoromethoxy)pyridin-3-yl]-9H-purin-6-yl]piperidin-4-yl}-1-(2-fluorophenyl)urea]
- Kb (hCB1 [3]): 380 ± 140 nM

SMILES: CC1(NC(=O)NC2CCC(F)(F)CC2)CCN(c2ncnc3c2nc(-c2ccccc2Cl)n3-c2ccc(Cl)cc2)CC1 [Compound 48, 3-{1-[8-(2-Chlorophenyl)-9-(4-chlorophenyl)-9H-purin-6-yl]-4-methylpiperidin-4-yl}-1-(4,4-difluorocyclohexyl)urea]
- Selectivity Ki CB2/CB1 (hCB1 [7]): > 550 and >588

SMILES: CC1(NC(=O)Nc2ccccc2F)CCN(c2ncnc3c2nc(-c2ccccc2Cl)n3-c2ccc(Cl)cc2)CC1 [Compound 50, 3-{1-[8-(2-Chlorophenyl)-9-(4-chlorophenyl)-9H-purin-6-yl]-4-methylpiperidin-4-yl}-1-(2-fluorophenyl)urea]
- Selectivity Ki CB2/CB1 (hCB1 [7]): >2500

SMILES: CC1(NC(=O)Nc2ccc(OC(F)F)nc2)CCN(c2ncnc3c2nc(-c2ccccc2Cl)n3-c2ccc(Cl)cc2)CC1 [Compound 52, 3-{1-[8-(2-Chlorophenyl)-9-(4-chlorophenyl)-9H-purin-6-yl]-4-methylpiperidin-4-yl}-1-[6-(difluoromethoxy)pyridin-3-yl]urea]
- Selectivity Ki CB2/CB1 (hCB1 [7]): >120

SMILES: CC1(NC(=O)NS(=O)(=O)c2ccccc2F)CCN(c2ncnc3c2nc(-c2ccccc2Cl)n3-c2ccc(Cl)cc2)CC1 [Compound 53, 3-{1-[8-(2-Chlorophenyl)-9-(4-chlorophenyl)-9H-purin-6-yl]-4-methylpiperidin-4-yl}-1-[(2-fluorobenzene)sulfonyl]urea]
- Selectivity Ki CB2/CB1 (hCB1 [7]): >80

Values joined by “and” are separate entries in the source; they are usually repeats but may differ in a detail not shown here. Equal values may be shown once. Read-outs that look alike come from different tables or passages of the source.
